Experiment: Stability in DMSO/water (1:1, v/v) by HPLC-UV-MS or analytical HPLC
Format: physicochemical
Settings: DMSO/H2O (1:1, v/v), RP-HPLC
Protocol: The stability of compounds 6, 7, 9, 10, 13a,b, and 14a,b in aqueous solution was studied by HPLC‐UV‐MS or analytical HPLC measurements as well (see Supporting Information for details, “4 HPLC Stability Determination of Compounds 6, 7, 9, 10, 13a, 13b, 14a, 14b”). All compounds except 13a were stable for at least one day (Supporting Information, section 4 ).
The stability was evaluated for all compounds in a mixture of DMSO, dried over molecular sieve, and LC‐MS grade water (1:1, v/v) with the same HPLC‐UV‐MS systems as described under “Purity Determination”. The column, eluent system, flow and MS tool were operated in the same way. For the stability determination, a few milligrams of each compound were dissolved in 1 mL DMSO. To dissolve the compounds, they were vortexed and heated up if necessary. The stock solution was further diluted with water. For that, 50–100 μL of the stock solution was transferred into a vial and the same amount of LC‐MS grade water was added. The two solvents were mixed thoroughly, and the measurement with HPLC‐UV‐MS was directly started. Additionally, measurements were performed in a varying time frame, from 15 or 20 min to 1 day. Usually, the injection volume was 10 μL, and before the measurement of the samples, a blank run with only DMSO/LC‐MS grade water (1:1, v/v) was performed. […] For the latter compounds, the aforementioned system (Agilent 1200 system) and the following gradient was used: 0–3 min 45% eluent B, 3–28 min 45%–95% eluent B, 28–34 min 95% eluent B, 34–35 min 95%–45% eluent B, then 35–40 min 45% eluent B, flow: 0.75 mL min^−1.
4 Stability Determination of Compounds 6, 7, 9, 10, 13a, 13b, 14a, 14b by HPLC A few milligrams of each compound have been dissolved in 1 mL DMSO, which was stored over molecular sieve.
50-100 µL of the DMSO solution have been transferred into a separate vial together with the same amount of LC-MS grade water. The mixture was measured directly after water addition and in time intervals from 20 min to 1 d by HPLC-UV-MS or analytical HPLC measurements. All compounds were stable for at least one day except for […]
rather for its nido-carborane analog, which was anyway the most prominent side product, no further stability measurements have been performed.
Figure S74. RP-HPLC chromatograms of blank (DMSO/H2O, black and green) and compound 6, retention time: 10.5 min, purity after 1 d: >98%.
Figure S75. RP-HPLC chromatograms of blank (DMSO/H2O, blue and pink) and compound 7, retention time: 8.3 min, purity after 1 d: >96%. […]

Substance	purity after 1 d
(R/S)‐2‐[2‐fluoro‐(1,1′‐biphenyl)‐4‐yl]‐N‐(1,2‐closo‐dicarbadodecaborane)‐ethylpropanamide [Compound 13b]	> 97%
(R/S)‐2‐[2‐fluoro‐(1,1′‐biphenyl)‐4‐yl]‐N‐(1,2‐closo‐dicarbadodecaborane)‐methylpropanamide [Compound 13a]	~ 89%
Cesium (R/S)‐2‐[2‐fluoro‐(1,1'‐biphenyl)‐4‐yl]‐N‐(7,8‐nido‐dicarbadodecahydroundecaborate(−1))‐ethylpropanamide [Compound 14b]	~ 95%
Cesium (R/S)‐2‐[2‐fluoro‐(1,1′‐biphenyl)‐4‐yl]‐N‐(7,8‐nido‐dicarbadodecahydroundecaborate(−1))‐methylpropanamide [Compound 14a]	~ 95%
